Results taken from PMC11979947, “Modeling Krebs cycle from liver, heart and hepatoma mitochondria, supported Complex I as target for specific inhibition of cancer cell proliferation” (Frontiers in Oncology, 2025).

Columns and labels:
IDH-NAD [1] = biological target: T1, IDH-NAD (Rattus norvegicus, UniProt Q99NA5); experiment: IDH-NAD enzyme kinetics in AS-30D hepatoma mitochondria (HepM); format: biochemical; conditions: 37°C
T1 construct: stored at -70°C until use for determination of enzyme activities and Western blotting; from tissue; host or cells: mitochondria isolated from rat liver (RLM), solubilised with 0.02% Triton X-100
T1 sequence (Q99NA5 28-366): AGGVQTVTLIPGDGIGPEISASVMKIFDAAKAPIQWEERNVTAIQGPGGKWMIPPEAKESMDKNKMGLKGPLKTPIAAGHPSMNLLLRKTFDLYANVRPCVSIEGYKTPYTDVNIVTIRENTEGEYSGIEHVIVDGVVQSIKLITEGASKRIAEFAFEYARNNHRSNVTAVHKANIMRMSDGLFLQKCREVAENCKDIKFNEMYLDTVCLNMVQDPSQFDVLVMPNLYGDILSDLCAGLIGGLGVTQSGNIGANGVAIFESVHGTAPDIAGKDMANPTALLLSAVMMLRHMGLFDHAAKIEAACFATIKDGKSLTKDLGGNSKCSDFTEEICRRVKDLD
T1 sequence (Q68FX0 35-385 partner): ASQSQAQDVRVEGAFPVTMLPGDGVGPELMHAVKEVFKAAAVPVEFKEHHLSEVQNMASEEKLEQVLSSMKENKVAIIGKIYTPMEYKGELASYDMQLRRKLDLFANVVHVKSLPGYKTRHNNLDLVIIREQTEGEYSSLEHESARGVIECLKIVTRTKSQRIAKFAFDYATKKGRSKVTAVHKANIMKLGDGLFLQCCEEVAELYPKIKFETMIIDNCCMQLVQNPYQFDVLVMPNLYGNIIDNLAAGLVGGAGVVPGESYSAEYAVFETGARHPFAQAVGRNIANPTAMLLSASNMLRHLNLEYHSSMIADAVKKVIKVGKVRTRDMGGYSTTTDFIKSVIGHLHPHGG
T1 sequence (P41565 40-393 partner): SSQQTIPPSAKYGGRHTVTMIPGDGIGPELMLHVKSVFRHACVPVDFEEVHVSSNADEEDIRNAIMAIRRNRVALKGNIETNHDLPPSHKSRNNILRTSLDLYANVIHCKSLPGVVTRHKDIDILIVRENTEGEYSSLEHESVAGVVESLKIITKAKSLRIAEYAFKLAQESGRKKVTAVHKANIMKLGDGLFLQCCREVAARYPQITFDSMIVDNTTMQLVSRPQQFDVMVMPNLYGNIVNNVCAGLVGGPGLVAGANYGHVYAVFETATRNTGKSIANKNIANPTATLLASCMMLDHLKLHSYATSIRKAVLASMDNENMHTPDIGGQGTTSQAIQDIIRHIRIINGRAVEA
Procedure: (§1) Rat liver (RLM), rat heart (RHM) and AS-30D rat hepatoma (HepM) mitochondria were prepared as previously described ([20]–[22]). All animals were manipulated according to the guidelines NOM-062-ZOO-1999 (Norma Oficial Mexicana) for the care and use of laboratory animals, and the project received approval from the Internal Committee for the Care and Use of Laboratory Animals (CICUAL) with number INC/CICUAL/004/2021 from Instituto Nacional de Cardiología Ignacio Chávez. […]
(§2) The mitochondrial activities of ACO, IDH-^NAD, IDH-^NADP, 2OGDH, SDH, FH, MDH, Aspartate aminotransferase (AST), ME, glutamate dehydrogenase (GDH), alanine aminotransferase (ALT) and PDH were determined spectrophotometrically at 340 nm ([13], [25]) and 37°C, except where indicated. […]
(§3) CS activity was determined as CoA liberation by its thiol reaction with DTNB monitored at 412 nm ([13], [25]); the standard assay contained 0.1 mM DTNB, 0.003-0.3 mM AcCoA, 0.005-0.2 mM OAA (freshly prepared) and 0.003-0.006 mg of mitochondrial protein. […] IDH^-NADP activity was determined with 0.01-1 mM NADP^+, 0.1 mM MgCl2, 0.015-1.5 mM DL-Iso and 0.1-0.2 mg of mitochondrial protein. […] SDH assay contained 0.075 mM DCPIP, 0.4 mM PMS, 0.1-10 mM Suc and 0.025-0.12 mg of protein; the reaction was monitored at 600 nm. […]

IDH-NAD [2] = biological target: T1, IDH-NAD; experiment: IDH-NAD enzyme kinetics in rat liver mitochondria (RLM); format: biochemical; conditions: 37°C
Procedure: as §1, §2, §3

[3] = pH 7.20, read-out: Ki NADH vs Iso
[4] = pH 7.20, read-out: Ki NADH vs NAD+

**Q.** Which results are given for NADH?
**A.** Ki (IDH-NAD [1]; [3]): 40 ± 8 µM; Ki (IDH-NAD [1]; [4]): 80 ± 10 µM; Ki (IDH-NAD [2]; [3]): 30 ± 17 µM; Ki (IDH-NAD [2]; [4]): 50 ± 20 µM
